From patent US20260385988A1, “METHOD FOR SCREENING FOR PROTEINS ASSOCIATED WITH NEURODEGENERATIVE DISEASES AND THERAPEUTIC OR PROPHYLACTIC DRUGS FOR NEURODEGENERATIVE DISEASES” (published 2026)

Sequences of proteins named here, by UniProt entry; tags and fusion partners are left off. Residues count along the entry.
UniProt Q92973, whole entry: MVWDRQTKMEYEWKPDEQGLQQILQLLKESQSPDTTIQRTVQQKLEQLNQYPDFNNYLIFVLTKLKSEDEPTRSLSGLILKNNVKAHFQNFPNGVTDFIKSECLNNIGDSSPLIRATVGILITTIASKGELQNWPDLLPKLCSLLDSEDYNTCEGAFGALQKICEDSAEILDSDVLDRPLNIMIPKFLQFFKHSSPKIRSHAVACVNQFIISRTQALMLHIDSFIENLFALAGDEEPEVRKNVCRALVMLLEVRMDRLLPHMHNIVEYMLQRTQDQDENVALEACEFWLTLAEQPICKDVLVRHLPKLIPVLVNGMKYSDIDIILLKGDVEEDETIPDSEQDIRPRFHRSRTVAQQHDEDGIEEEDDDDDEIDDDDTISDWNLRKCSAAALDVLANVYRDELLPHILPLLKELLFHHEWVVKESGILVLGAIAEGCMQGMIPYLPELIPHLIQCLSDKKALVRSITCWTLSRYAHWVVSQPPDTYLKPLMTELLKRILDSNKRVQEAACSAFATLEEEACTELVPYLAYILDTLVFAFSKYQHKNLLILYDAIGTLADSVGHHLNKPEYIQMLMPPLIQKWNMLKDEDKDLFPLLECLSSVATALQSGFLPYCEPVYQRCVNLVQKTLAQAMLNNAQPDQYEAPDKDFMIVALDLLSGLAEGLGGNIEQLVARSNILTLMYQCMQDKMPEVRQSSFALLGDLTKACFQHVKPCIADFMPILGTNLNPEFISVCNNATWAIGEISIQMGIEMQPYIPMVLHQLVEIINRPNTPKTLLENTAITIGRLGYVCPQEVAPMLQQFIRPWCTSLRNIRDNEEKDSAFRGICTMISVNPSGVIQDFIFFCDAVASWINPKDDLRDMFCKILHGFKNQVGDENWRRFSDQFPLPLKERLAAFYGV
UniProt P35637, whole entry: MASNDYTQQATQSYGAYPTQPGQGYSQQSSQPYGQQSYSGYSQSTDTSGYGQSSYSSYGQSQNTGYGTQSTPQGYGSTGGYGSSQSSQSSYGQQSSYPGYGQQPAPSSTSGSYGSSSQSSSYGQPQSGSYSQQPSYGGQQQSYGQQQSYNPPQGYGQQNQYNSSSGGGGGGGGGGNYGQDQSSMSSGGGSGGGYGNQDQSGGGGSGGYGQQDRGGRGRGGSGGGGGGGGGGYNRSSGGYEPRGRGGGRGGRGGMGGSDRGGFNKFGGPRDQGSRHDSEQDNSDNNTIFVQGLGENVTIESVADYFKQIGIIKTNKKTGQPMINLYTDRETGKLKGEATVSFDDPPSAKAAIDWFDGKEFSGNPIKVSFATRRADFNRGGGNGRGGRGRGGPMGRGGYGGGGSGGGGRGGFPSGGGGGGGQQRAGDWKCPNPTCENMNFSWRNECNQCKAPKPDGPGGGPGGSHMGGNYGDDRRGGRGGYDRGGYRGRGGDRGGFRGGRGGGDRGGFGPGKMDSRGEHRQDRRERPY
UniProt P02754, 17-178 limits assumed: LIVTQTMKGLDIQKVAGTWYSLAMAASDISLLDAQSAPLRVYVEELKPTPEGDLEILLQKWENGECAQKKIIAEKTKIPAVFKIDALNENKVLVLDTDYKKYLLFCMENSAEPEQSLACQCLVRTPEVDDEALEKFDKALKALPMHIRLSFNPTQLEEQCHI

Legend:
[1] = target: human karyopherin β2 (Kapβ2) (Homo sapiens, UniProt Q92973); experiment: Kapβ2-induced fluorescence changes in dansyl-DPR probes (turn-on response); conditions: for binding to Kapβ2 (conclusion from fluorescence): 520 nm fluorescence intensity, n=3; for change in fluorescence intensity on addition of Kapβ2: various Kapβ2 concentrations, probe 300 nM, 35 °C, 10 min
Description: (§1) MBP-tagged human FUS (Cell, 173(3):693-705.e22 (2018); hereinafter “MBP-FUS”), human karyopherin β2 (Cell, 173(3):693-705.e22 (2018); hereafter referred to as “Kapβ2”), C. elegans importin β family protein (UniProt accession number: A0A131MBF9; hereafter referred to as “Imb-2”), human heteronuclear ribonucleoprotein protein A2 (Cell, 163(4):829-839 (2015); hereafter described as “hnRNPA2LC”), and human peptidyl prolyl cis-trans isomerase A (Cell, 163(4):829-839 (2015); hereafter referred to as “PPIA”) were provided by Professor Tomohide Saio of the Institute for Advanced Enzyme Research, University of Tokushima. Human importin α1 (Cell, 173(3):693-705.e22 (2018); hereinafter described as “Impα”), human importin β1 (Cell, 173(3):693-705.e22 (2018); hereinafter referred to as “Impβ”), GST-tagged M9M peptide (Cell, 173(3):693-705.e22 (2018); hereafter referred to as “GST-M9M”), and human GTP-bound Ran (Q69L) (UniProt accession number: P62826; hereinafter referred to as “RanGTP”) were provided by Assistant Professor Takuya Yoshizawa, Faculty of Life Science, Ritsumeikan University.
(§2) A buffer solution (20 mM Tris-HCl (pH 7.5), 150 mM NaCl, and 2 mM DTT (final concentration)) was used to prepare the probe solutions (final concentration 300 nM) for probes 1 to 7 above. Each probe solution was added to a 384-well microplate (Corning, 3575) at 30 μL/well using an automated pipetting system (Andrew+, Andrew Alliance). After incubation at 35 °C for 10 min, fluorescence intensity (fluorescence wavelength: 520 nm) and fluorescence spectrum (fluorescence wavelength: 400-700 nm) at an excitation wavelength of 340 nm were measured using a microplate reader (Cytation 5, BioTek). Then, various concentrations of Kapβ2 solution (Kapβ2/pure water) were added to the 384-well microplate at 30 μL/well using an automated pipetting system. After incubation at 35 °C for 10 minutes, fluorescence intensity and fluorescence spectrum were measured under the same conditions as above.

[2] = target: interaction between Dnc-PR20 and Kapβ2 (Homo sapiens, UniProt Q92973); experiment: Screening for DPRs-Kapβ2 binding inhibitors: Dnc-PR20/Kapβ2 mixture with additives (turn-off response)
Description: as §1
A buffer solution (20 mM Tris-HCl (pH 7.5), 150 mM NaCl, and 2 mM DTT (final concentration)) was used to prepare a mixture of Dnc-PR20 (final concentration 300 nM) and Kapβ2 (final concentration 400 nM), and an automatic dispensing system (Andrew+, Andrew Alliance) was used to add 20 μL/well of each to a 384-well microplate (Corning, 3820). After incubation at 35 °C for 10 min, the fluorescence intensity (fluorescence wavelength: 520 nm) and fluorescence spectrum (fluorescence wavelength: 400-700 nm) were measured at an excitation wavelength of 340 nm using a microplate reader (Cytation 5, BioTek). Then, 5 μL/well of various concentrations of additives (poly K50 or IgG/pure water) were added using an automated pipetting system, and after incubation at 35 °C for 10 minutes, the fluorescence intensity and fluorescence spectrum were measured under the same conditions. As a control, the Dnc-PR20 solution without Kapβ2 was measured for fluorescence intensity and fluorescence spectrum in the same manner.
In addition to poly K50 and IgG, the 520 nm fluorescence intensity of Dnc-PR20 was measured with PAMAM, GST-M9M, RanGTP, ATP, and HSA as additives, using the same procedure as in Section 6 above.

[3] = test system: human serum-derived α1-antitrypsin, human serum-derived albumin (HSA), human serum-derived apotransferrin, chicken egg white-derived lysozyme, human serum-deriv; experiment: Fluorescence change of probes by various proteins: other proteins; conditions: proteins other than β-lactoglobulin, 1600 nM; excitation 340 nm
Protocol: (§3) Bovine milk-derived β-lactoglobulin, human serum-derived α1-antitrypsin, human serum-derived albumin, human serum-derived apotransferrin, and chicken egg white-derived lysozyme were purchased from Sigma-Aldrich. Human serum-derived immunoglobulin G was purchased from Equitech-Bio, Inc.
as §2, with “as above. […]” for “as above.”

[4] = target: MBP-tagged human FUS (MBP-FUS) (Homo sapiens, UniProt P35637); experiment: Fluorescence changes in probes due to FUS
Description: MBP-tagged human FUS (Cell, 173(3):693-705.e22 (2018); hereinafter “MBP-FUS”), human karyopherin β2 (Cell, 173(3):693-705.e22 (2018); hereafter referred to as “Kapβ2”), C. elegans importin β family protein (UniProt accession number: A0A131MBF9; hereafter referred to as “Imb-2”), human heteronuclear ribonucleoprotein protein A2 (Cell, 163(4):829-839 (2015); hereafter described as “hnRNPA2LC”), and human peptidyl prolyl cis-trans isomerase A (Cell, 163(4):829-839 (2015); hereafter referred to as “PPIA”) were provided by Professor Tomohide Saio of the Institute for Advanced Enzyme Research, University of Tokushima. […]
A buffer solution (20 mM Tris-HCl (pH 7.5), 150 mM NaCl, and 2 mM DTT (final concentration)) was used to prepare the probe solutions (final concentration 300 nM) for probes 1 to 7 above. […] After incubation at 35 °C for 10 min, fluorescence intensity (fluorescence wavelength: 520 nm) and fluorescence spectrum (fluorescence wavelength: 400-700 nm) at an excitation wavelength of 340 nm were measured using a microplate reader (Cytation 5, BioTek). […] After incubation at 35 °C for 10 minutes, fluorescence intensity and fluorescence spectrum were measured under the same conditions as above. […]

[5] = target: bovine milk-derived β-lactoglobulin (Bos taurus, UniProt P02754); experiment: Fluorescence change of probes by various proteins: β-lactoglobulin; conditions: "any of the proteins", here β-lactoglobulin, 1600 nM
Protocol: as §3
as §2, with “as above. […]” for “as above.”

## C[C@H](NC(=O)CNC(=O)[C@H](C)NC(=O)CNC(=O)[C@H](C)NC(=O)CNC(=O)[C@H](C)NC(=O)CNC(=O)[C@H](C)NC(=O)CNC(=O)[C@H](C)NC(=O)CNC(=O)[C@H](C)NC(=O)CNC(=O)[C@H](C)NC(=O)CNC(=O)[C@H](C)NC(=O)CNC(=O)[C@H](C)NC(=O)CNS(=O)(=O)c1cccc2c(N(C)C)cccc12)C(=O)O
[1]
  binding to Kapβ2 (conclusion from fluorescence): do not
[1]; excitation 340 nm
  change in fluorescence intensity on addition of Kapβ2: unchanged

## CN(C)c1cccc2c(S(=O)(=O)NCC(=O)N[C@@H](CCCNC(=N)N)C(=O)NCC(=O)N[C@@H](CCCNC(=N)N)C(=O)NCC(=O)N[C@@H](CCCNC(=N)N)C(=O)NCC(=O)N[C@@H](CCCNC(=N)N)C(=O)NCC(=O)N[C@@H](CCCNC(=N)N)C(=O)NCC(=O)N[C@@H](CCCNC(=N)N)C(=O)NCC(=O)N[C@@H](CCCNC(=N)N)C(=O)NCC(=O)N[C@@H](CCCNC(=N)N)C(=O)NCC(=O)N[C@@H](CCCNC(=N)N)C(=O)NCC(=O)N[C@@H](CCCNC(=N)N)C(=O)O)cccc12
[1]
  binding to Kapβ2 (conclusion from fluorescence): bind Kapβ2
[1]; excitation 340 nm
  change in fluorescence intensity on addition of Kapβ2: increased in a Kapβ2 concentration-dependent manner

## 50-mer polylysine
[2]; FIG. 10, Dnc-PR20/Kapβ2 mixture
  change in 520 nm fluorescence intensity of Dnc-PR20 with additives: attenuated
[2]; additive 0-300 nM, Dnc-PR20 300 nM, Kapβ2 400 nM, 35 °C, 10 min
  change in fluorescence intensity of Dnc-PR20 on addition of additive: decreased in a poly K50 concentration-dependent manner
[2]; additive 200 nM, Dnc-PR20 300 nM, Kapβ2 400 nM
  fluorescence intensity of Dnc-PR20 compared with control (Dnc-PR20 without Kapβ2): comparable to that of the control
[2]; conclusion from fluorescence, n=3
  inhibition of the interaction between Dnc-PR20 and Kapβ2: inhibited the interaction between Dnc-PR20 and Kapβ2

## CN(C)c1cccc2c(S(=O)(=O)NCC(=O)N3CCC[C@H]3C(=O)NCC(=O)N3CCC[C@H]3C(=O)NCC(=O)N3CCC[C@H]3C(=O)NCC(=O)N3CCC[C@H]3C(=O)NCC(=O)N3CCC[C@H]3C(=O)NCC(=O)N3CCC[C@H]3C(=O)NCC(=O)N3CCC[C@H]3C(=O)NCC(=O)N3CCC[C@H]3C(=O)NCC(=O)N3CCC[C@H]3C(=O)NCC(=O)N3CCC[C@H]3C(=O)O)cccc12
[1]
  binding to Kapβ2 (conclusion from fluorescence): do not
[1]; excitation 340 nm
  change in fluorescence intensity on addition of Kapβ2: unchanged

## CN(C)c1cccc2c(S(=O)(=O)NCC(=O)N3CCC[C@H]3C(=O)NCC(=O)N3CCC[C@H]3C(=O)NCC(=O)N3CCC[C@H]3C(=O)NCC(=O)N3CCC[C@H]3C(=O)NCC(=O)N3CCC[C@H]3C(=O)NCC(=O)N3CCC[C@H]3C(=O)NCC(=O)N3CCC[C@H]3C(=O)NCC(=O)N3CCC[C@H]3C(=O)NCC(=O)N3CCC[C@H]3C(=O)NCC(=O)N3CCC[C@H]3C(=O)NCC(=O)N3CCC[C@H]3C(=O)NCC(=O)N3CCC[C@H]3C(=O)NCC(=O)N3CCC[C@H]3C(=O)NCC(=O)N3CCC[C@H]3C(=O)NCC(=O)N3CCC[C@H]3C(=O)NCC(=O)N3CCC[C@H]3C(=O)NCC(=O)N3CCC[C@H]3C(=O)NCC(=O)N3CCC[C@H]3C(=O)NCC(=O)N3CCC[C@H]3C(=O)NCC(=O)N3CCC[C@H]3C(=O)O)cccc12
[3]
  change of fluorescence spectrum: did not exhibit substantial changes
[1]; 400-700 nm, excitation 340 nm
  change of fluorescence spectrum on addition of Kapβ2: little changed
[1]
  binding to Kapβ2 (conclusion from fluorescence): not
[4]; 400-700 nm, excitation 340 nm
  change of fluorescence spectrum on addition of MBP-FUS: hardly changed
[4]; 520 nm fluorescence intensity, n=3
  binding to MBP-FUS (conclusion from fluorescence): not
[5]
  change of fluorescence spectrum: did not exhibit substantial changes
